Screening data: PubChem BioAssay, National Center for Advancing Translational Sciences (NCATS)
Rows were chosen to be rich in hits. Some 16% of all compounds tested hit in one or more screens of this group.
miR-21 reporter = raises the signal of a miR-21 reporter; Potency, µM (doses to about 38.3 µM), inactives show top-dose reporter change, positive = more light; HeLa miR-21 FLuc reporter, luciferase, 48 h; AID 2288; 340,000 tested, under 10 active; active = well fitted rising curve with a large enough effect; inconclusive = small, poorly fitted or top-dose-only effect; inactive = no such curve, though single readings can be large or run the other way;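 further: % of control where 0% means no effect; miR-21 action dims this reporter so a rising signal means less miR-21 action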
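Compounds were titrated across several concentrations (up to approximately 40 uM) and incubated 48 hours with HeLa miR-21-FLuc reporter cells (miR-21 target sequence downstream of FLuc, endogenous miR-21). Readout was firefly luciferase luminescence after lytic detection reagent.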
TDP1 cell noCPT = qHTS for Inhibitors of human tyrosyl-DNA phosphodiesterase 1 (TDP1): qHTS in cells in absence of CPT; DT40 Tdp1-/- hTDP1 cells, no CPT, ATP luminescence, 48 h; Potency, µM (doses to about 46.2 µM), inactives show at the highest dose activity change, negative = growth inhibition, usual class: inhibitors; 420,000 compounds, 15% hits; AID 686978, 2013; note: potency is the fitted concentration of half-maximal effect; % is set by controls: 0 for no effect and ±100 for the full control effect; nearly all actives have a fitted effect of over 55% in size
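Readout: luminescence from CellTiter-Glo after 30 min in the dark at RT. Cells: DT40 Tdp1-/- with stable hTDP1, 400/well. Exposure: compounds alone, ≥48 hr, 37 °C.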
uPA generation = cell surface uPA generation inhibition; cell surface uPA generation assay, qHTS; Potency, µM (series often up to 38.3 µM), for the others: top-dose activity change, negative = inhibition, usual class: inhibitors; 330,000 compounds, 0.31% hits; active = well fitted inhibition curve with a large enough effect; inconclusive = small, poorly fitted or top-dose-only effect; inactive = no such curve, though single readings can be large or run the other way; tested in mouse RAW 264.7 cells; note: potency is the fitted concentration of half-maximal effect; % is set by controls: 0 for no effect and ±100 for the full control effect; nearly all actives have a fitted effect of over 55% in size
TDP1 inh = inhibitors of human tyrosyl-DNA phosphodiesterase TDP1. recombinant TDP1, AlphaScreen DNA substrate cleavage. 350,000 compounds, 0.28% hits. Potency, µM (series often up to 130 µM), inactives show at the highest dose activity change, negative = inhibition, actives largely listed as inhibitors. AID 485290; note: potency is the fitted concentration of half-maximal effect; % is set by controls: 0 for no effect and ±100 for the full control effect; nearly all actives have a fitted effect of over 40% in size
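Recombinant E. coli-expressed Tdp1 (1 nM) preincubated with compound 15 min at RT, then 5'-biotin/3'-phosphotyrosine-FITC DNA substrate (15 nM) added for 5 min. AlphaScreen beads (10 ug/ml) added, 10 min RT; tyrosine-FITC cleavage read as signal loss.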
TDP1 cell CPT = DT40-hTDP1 cell growth loss with CPT; chicken DT40 Tdp1-/-;hTDP1 cells + 20 nM CPT, ATP luminescence, 48 h; Potency, µM (highest dose often 46.2 µM), for the others: at the highest dose activity change, negative = growth inhibition, actives largely listed as inhibitors; 420,000 compounds, 12% hits; note: potency is the fitted concentration of half-maximal effect; % is set by controls: 0 for no effect and ±100 for the full control effect; nearly all actives have a fitted effect of over 55% in size
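Chicken DT40 Tdp1-/- cells stably complemented with human TDP1 were seeded at 400 cells/well in medium containing 20 nM camptothecin, exposed to pin-transferred compounds, and grown at 37 °C for at least 48 hr. Viability was read as ATP luminescence.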
Starred values were filed as active, the others as inactive; ? = inconclusive; / = not tested or not shown; [ ] = dose if it differs, or a comment. Unless noted, calls come from the whole dose curve; as a rule, active = well fitted curve in the direction sought with a large enough effect; inconclusive = small, poorly fitted or top-dose-only effect, or another doubt; inactive = no such curve, though single readings can be large; an effect the other way counts as inactive or inconclusive.

SMILES | miR-21 reporter | TDP1 cell noCPT | uPA generation | TDP1 inh | TDP1 cell CPT
NC(=O)c1c(Br)n(C2OC(CO)C(O)C2O)c2ncnc(N)c12 (stereo unspecified) | / | 1.8µM* | -16% | / | 2.1µM*
CC(=O)CC(c1ccccc1)c1c(O)c2cccc(O)c2oc1=O (stereo unspecified) | / | / | / | 3% | /
CCCCOC1OCN(C2CCCCC2)CC1(C)C (stereo unspecified) | / | ? | / | / | -19%
CN1CCC2=C[C@H](O)[C@@H]3OC(=O)c4cc5c(cc4[C@H]3[C@H]21)OCO5 | / | / | / | -2%[56.1 µM] | /
Cc1nc2c(=O)n(C)c(=O)nc-2n(C)n1 | ? | 0.52µM* | -8% | 6% | 0.41µM*
CCc1ccc(/C=C2\SC(=S)N(CCC(=O)N3CCN(C)CC3)C2=O)cc1 | 1% | ? | ? | -13% | -21%
O=C(NCc1nc2ccccc2[nH]1)C1=C[C@@H](c2ccc(C(F)(F)F)cc2)C[C@@H](OCc2ccc(CO)cc2)O1 | / | 18µM* | ? | / | ?
O=C(NCc1ccccc1)C1=C[C@H](c2ccc(Br)cc2)C[C@H](OCc2ccc(CO)cc2)O1 | 0% | ? | 6% | 4% | ?
C=CCN1C(=O)c2ccccc2Sc2ccc(C(=O)N3CCC4(CC3)OCCO4)cc21 | 11% | ? | / | 3% | ?
Cc1ccc(CN2C(=O)c3ccccc3Sc3ccc(C(=O)N4CCC5(CC4)OCCO5)cc32)cc1 | 5% | 23µM* | / | 10% | ?
O=C(c1ccc2c(c1)N(Cc1ccc(F)cc1Cl)C(=O)c1ccccc1S2)N1CCC2(CC1)OCCO2 | 8% | 23µM* | / | 8% | 23µM*
CCC[C@@](C)(COC(N)=O)COC(=O)NC(C)C | / | / | / | 12%[21 µM] | /
CCOc1ccccc1CN1CCCC(C(=O)c2cc(F)ccc2F)C1 (stereo unspecified) | 5% | ? | 0% | / | -45%
O=C1C(=O)N(c2ccccc2)P(=O)(N(CCCl)CCCl)N1c1ccccc1 | / | -1% | -5% | / | -2%
COc1cccc(-n2c(SCC(=O)c3ccc(Cl)cc3)nc3c([nH]c4ccccc43)c2=O)c1 | -13% | 4.1µM* | / | 0% | 3.7µM*

Filtered by structure, those above with bromine (two)
SMILES | miR-21 reporter | TDP1 cell noCPT | uPA generation | TDP1 inh | TDP1 cell CPT
NC(=O)c1c(Br)n(C2OC(CO)C(O)C2O)c2ncnc(N)c12 (stereo unspecified) | / | 1.8µM* | -16% | / | 2.1µM*
O=C(NCc1ccccc1)C1=C[C@H](c2ccc(Br)cc2)C[C@H](OCc2ccc(CO)cc2)O1 | 0% | ? | 6% | 4% | ?

Carrying on:
SMILES | miR-21 reporter | TDP1 cell noCPT | uPA generation | TDP1 inh | TDP1 cell CPT
Cc1cc(C)cc(-n2c(SCC(=O)NCc3ccc(F)cc3)nc3c([nH]c4ccccc43)c2=O)c1 | 3% | 16µM* | / | -1% | ?
COc1cccc(-n2c(C)nc3ccccc3c2=O)c1 | -12% | -12% | 2% | 0% | -29%
O=C(CSc1nnc(NC(=O)c2ccccc2F)s1)NCc1ccc(F)cc1 | -47% | 13% | -11% | 1%[56.1 µM] | -18%
CC(C)(C)OO | / | / | / | 2% | /
N#CC(C#N)=Cc1ccc(C=C(C#N)C#N)cc1 | 0% | 4.6µM* | -3% | 9% | 3.7µM*
O=C(C1=C[C@H](c2ccc(Br)cc2)C[C@H](OCCCCO)O1)N1CCN(Cc2ccc3c(c2)OCO3)CC1 | 18% | 16µM* | ? | 5% | 18µM*
Cc1ccc(C)cc1 | / | / | / | 17% | /
COC(=O)c1ccc(Cl)c(NC(=O)CN2CCN(Cc3ccccc3)CC2)c1 | 1% | ? | -2% | 4% | 2%
O=C(CN1CCN(C(=O)CNC(=O)c2ccc(-c3ccccc3)cc2)CC1)Nc1ccccc1Cl | / | 13µM* | / | / | 13µM*
CCOc1ccc(NC(=O)c2c(O)[nH]c(=O)[nH]c2=O)cc1 | / | 16µM* | ? | / | 23µM*
O=[N+]([O-])c1cc(I)c(O)c(I)c1 | / | ? | / | 2% | 8%
CC(C)OP(=O)(Oc1ccc(C(O)C(Cl)(Cl)Cl)cc1)OC(C)C (stereo unspecified) | 10% | 18µM* | -9% | 4% | ?
O=C(C[C@H]1C/C=C\C[C@H](NC(=O)OCC2c3ccccc3-c3ccccc32)C(=O)O[C@H](c2ccccc2)CNC1=O)N[C@H](CO)Cc1ccccc1 | / | 3.7µM* | -17% | -2% | 3.3µM*
C[C@@H]1C[C@H](C)C[C@H](C)[C@@H](O)CC(=O)O[C@H]([C@H]2CCC[C@H]2C(=O)O)C/C=C/C=C(/C#N)[C@H](O)[C@@H](C)C1 | / | / | / | 8% | /
CN(C)c1c([N+](=O)[O-])cc(N2C(=O)C=CC2=O)cc1[N+](=O)[O-] | / | 1.3µM* | 2% | / | 1.3µM*
N#Cc1ccc(CN2CC[C@@]3(CCCN(C(=O)Oc4ccccc4)C3)C2)cc1 | / | ? | / | / | -1%
CC(Cc1ccccc1Sc1ccc(O)cc1)N(C)C (stereo unspecified) | 8% | 21µM* | -8% | 7% | ?
COc1ccc(-c2n(-c3ccccn3)c3ccccc3[n+]2-c2ccccn2)cc1 | 9% | 13µM* | -2% | 4% | 13µM*
Cc1ccc(-c2nc3ccccc3c(=O)n2-c2ccccn2)cc1 | -9% | ? | -3% | 5% | ?
CC(C)(COC(=O)C(c1ccccc1)c1ccccc1)CN1CCOCC1 | / | 21µM* | 5% | / | ?
CCN1CCCC(OC(=O)C(c2ccccc2)c2ccccc2)C1 (stereo unspecified) | / | ? | -18% | 8%[56.1 µM] | ?
CC(Cc1ccccc1)NCc1ccccc1Cl (stereo unspecified) | / | ? | / | -2% | ?
Oc1c(Cl)cccc1Cl | / | / | / | 3% | /
Oc1c(Cl)cccc1Cc1cc(Cl)cc(Cl)c1O | / | 21µM* | 0% | / | ?
COc1ccc(NC2=NCC(C)S2)cc1 (stereo unspecified) | -18% | 11% | -5% | 9% | 16%

Some of these compounds in order of molecular weight, descending.
SMILES | miR-21 reporter | TDP1 cell noCPT | uPA generation | TDP1 inh | TDP1 cell CPT
COc1ccc(-c2n(-c3ccccn3)c3ccccc3[n+]2-c2ccccn2)cc1 | 9% | 13µM* | -2% | 4% | 13µM*
CCN1CCCC(OC(=O)C(c2ccccc2)c2ccccc2)C1 (stereo unspecified) | / | ? | -18% | 8%[56.1 µM] | ?
CC(Cc1ccccc1Sc1ccc(O)cc1)N(C)C (stereo unspecified) | 8% | 21µM* | -8% | 7% | ?
